Assay results from ChEMBL document CHEMBL4261646, “Bisphosphonate Inhibitors of Mammalian Glycolytic Aldolase” (J Med Chem, 2018).

Columns and labels:
[1] = species: Homo sapiens; experiment: Slow binding inhibition of fructose-bisphosphate aldolase (unknown origin) assessed as off-rate binding constant of slow binding event using FBP as substrate and NADH by UV-Vis spectrophotometry dependent TIM/GDH coupled assay based Dixon plot analysis
[2] = species: Homo sapiens; experiment: Slow binding inhibition of fructose-bisphosphate aldolase (unknown origin) assessed as substrate Vm using FBP as substrate and NADH by UV-Vis spectrophotometry dependent TIM/GDH coupled assay based Dixon plot analysis
[3] = species: Homo sapiens; experiment: Slow binding inhibition of fructose-bisphosphate aldolase (unknown origin) assessed as on-rate binding constant of slow binding event using FBP as substrate and NADH by UV-Vis spectrophotometry dependent TIM/GDH coupled assay based Dixon plot analysis

SMILES: O=P([O-])([O-])Oc1ccc2cc(C(P(=O)([O-])[O-])P(=O)([O-])[O-])ccc2c1.[Li+].[Li+].[Li+].[Li+].[Li+].[Li+]
- K [1]: 0.01 min⁻¹
- Vmax [2]: 11.7 U/mg
- K [3]: 0.064 min⁻¹
